## Antibody variant affinities, Ab-14 light chain, assay B

Data: MIT Lincoln Laboratory AlphaSeq set, Li et al. 2023, doi:10.1038/s41467-023-39022-2, as distributed in FLAb.

The target is the same throughout: PDVDLGDISGINAS, from the HR2 region of SARS-CoV-2 spike.

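The variants were designed computationally from a first round of random CDR variants and then made and measured. Their group label is 14L_En_Gibbs (En: ensemble of fine-tuned language models; Gibbs: Gibbs sampling). The scFvs were displayed on barcoded MATa yeast, the peptide on MATalpha yeast. The frequency of each diploid, read from paired DNA barcodes, reflects how well the two displayed proteins bind. The ratio of observed to expected reads was calibrated, replicate by replicate, on BCL2-family standards whose Kd was known from biolayer interferometry. Mating was done six times.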

Parent: Ab-14, a human scFv built as VH, the linker GGGGSGGGGSGGGGS, VL. Only the CDRs of the light chain vary.
VH: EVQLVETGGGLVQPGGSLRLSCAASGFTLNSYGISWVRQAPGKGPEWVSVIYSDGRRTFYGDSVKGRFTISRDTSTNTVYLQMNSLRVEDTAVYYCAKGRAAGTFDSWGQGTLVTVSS
VL: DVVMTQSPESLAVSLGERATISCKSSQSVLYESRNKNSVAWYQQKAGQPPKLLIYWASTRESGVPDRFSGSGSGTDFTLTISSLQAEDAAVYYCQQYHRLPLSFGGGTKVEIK

Each variant is given by its three light chain CDRs, as the data file delimits them; those of the parent are KSSQSVLYESRNKNSVA, WASTRES, QQYHRLPLS.
Values are log10 of the apparent Kd in nM; lower means stronger binding.
An entry "n.d." has no value in the source: the pair was not observed among the diploids in that replicate. This suggests poor binding but is not conclusive.
Background: pairings of all light chain designs with three empty control strains gave a value in 4% of cases (median 2.64, 5th percentile 1.59). Values in that range, when seen in few replicates, are hard to tell from nonspecific mating. The control count says in how many pairings with the empty strains this scFv gave a signal, with their mean in brackets.

CDR-L1	CDR-L2	CDR-L3	log10 Kd (nM) by replicate	control signals
SFPSEMDQQQFQVNSIA	GEQHTAR	QQYGRLPLS	2.15 3.10 1.79 2.05 1.97 2.15	1/18 (2.83)
EIEILGEEVTQHYSNVA	EQHVTDM	QQYFRLPLS	n.d. n.d. n.d. n.d. 0.85 n.d.	0/18
RLTQQMAGFNRHANAIA	SGAERQW	QQYARLPIS	1.27 1.18 0.97 0.91 1.12 1.19	0/18
HIQSESEHFGKDHQSMA	DAHCKAA	QQYFRLPLM	0.65 0.42 0.48 0.38 0.51 0.54	1/18 (2.68)
RYQMDDNIGKGARNNIA	DGAEVYR	QQYARLPLT	0.09 0.04 0.06 -0.18 -0.02 0.03	1/18 (2.01)
SLIPFENQIMKGLNNIA	NTSVRAS	QQYMRLPFV	0.65 0.25 0.07 -0.07 0.25 0.33	2/18 (3.00)
FLHGNIEYGNKNWSAIA	ENTIRVP	QYYQHLPLA	n.d. n.d. n.d. n.d. n.d. n.d.	0/18
NLGFVDDNDNRGMMSVA	DVNTVGE	QQYNRLPLA	0.81 0.61 0.20 0.45 0.57 0.54	0/18
KLLGQNLQNMDKLNSIA	DQSVHYE	QQYWHLPFT	1.06 0.81 0.40 0.72 0.40 0.67	0/18
GIHSQMFGTIAVKKNVA	NANTRLS	QQYSHLPLS	0.67 0.80 1.33 0.79 0.91 0.90	0/18
QLSLMENHMGDRMHNVA	DTNQAKM	QDYFRLPLM	0.23 -0.03 0.58 -0.06 0.48 0.72	0/18
KIQNFSQEYNKMWNNIA	DMTMKHT	QQYNRLPLE	0.24 0.13 0.19 0.16 -0.05 0.23	3/18 (2.89)
RVSSMLMAGGIIYNNIA	GTKVLER	QQYMRLPLM	0.76 1.30 0.68 0.99 0.78 0.86	0/18
KLAMILSMEAGTYHGVA	DAEHKAD	QQYNRLPLS	1.02 0.46 0.21 0.07 0.45 0.61	0/18
HMSESEHGDNVGVGNMA	NAQESTD	QQYMHLPLS	0.03 0.06 0.03 -0.45 -0.32 -0.39	1/18 (1.77)
SMFEKEYEELQVEDNIA	DATERMV	QQYFRLPLL	1.09 2.27 0.85 0.80 1.30 1.65	0/18
ALQMETLGQKQKQNNIA	NDQMSTA	QQYYMLPLS	n.d. n.d. n.d. n.d. n.d. n.d.	0/18
KLTHLSFVHDRQKASVA	DLERKAE	QQYNRLPLT	n.d. n.d. n.d. n.d. n.d. 0.73	0/18
KIRVHHLMFSQNESNIA	GMSVRSE	QQYYHLPLT	0.26 0.30 0.30 0.25 0.13 0.62	1/18 (2.29)
QLSMWEQNGGRGYSSVA	DDDVRMA	QQYHRLPLS	0.47 0.36 0.05 0.25 0.36 0.40	1/18 (1.83)
KIQWYPLEFRGTIQAVA	EASTRYN	QQYMHLPLS	n.d. n.d. n.d. n.d. 1.40 n.d.	0/18
KIRVQQYMQSEMESNIA	GTSVRHS	QQYFHLPLT	0.51 0.58 0.65 0.48 0.77 0.88	0/18
QLKTEVIDNQKLRNSIA	ENELRAM	QQYLMLPLS	1.59 1.08 0.86 0.80 1.31 0.88	0/18
HLQEQSFFGQKDYSSMA	NTECKYN	QQYARLPLM	1.03 0.97 0.46 0.58 0.52 0.87	0/18
MLSYNLHDMDRNKNNVA	EMNKKTT	QDYHRLPLA	-0.31 -0.31 -0.07 -0.36 -0.28 -0.13	1/18 (2.98)
KIHELGKGNIKTANNIA	QTDIRMS	QSYNRLPLS	0.76 0.56 0.62 0.68 0.54 0.90	3/18 (3.24)
TIDLYTSYGNGENRAIA	DVSIKDY	QQYARLPLL	0.95 0.80 0.49 0.66 0.86 0.90	2/18 (2.84)
GLTISGDETHEKAFSIA	NATNKAY	QQYARLPLT	0.56 0.52 0.97 0.80 0.03 1.31	0/18
ALVAQNLQNMDNLNSIA	DQSQTQE	QQYFRLPFA	n.d. n.d. n.d. n.d. n.d. n.d.	0/18
QFHSHMAGDGDIQHSIA	EADCAEP	QQYFRLPLS	0.06 0.33 1.79 0.64 1.55 0.74	0/18
RFDAAMPMQNSNINSIA	EKAIQAD	QQYNRLPLS	0.73 0.83 0.40 0.38 0.35 0.67	0/18
RVQINSGHSDMHWYSIA	SASIRAD	QQYERLPLA	1.41 0.96 0.77 1.02 1.24 1.03	2/18 (2.62)
NLKEMEGTNQTKHGNIA	SVDQTMT	QQYFRLPLA	0.89 0.84 1.13 1.94 1.03 1.14	2/18 (2.18)
MLRFDITYGQKNWNAIA	ETSELGA	QQYMHLPLG	n.d. n.d. n.d. n.d. n.d. n.d.	0/18
RINIAGMTVDEHYSNVA	AQHLTSE	QQYFRLPLA	1.29 1.07 0.68 1.16 2.00 1.10	1/18 (1.37)
AVSIEHKENTAYWNAIA	DTSLRNN	QQYDQLPLS	1.50 1.99 1.39 1.51 1.98 1.26	1/18 (3.08)
NLSDGEMYENATRSHIA	DTKMRDF	QQYNRLPLI	0.90 1.01 0.56 0.90 0.88 0.99	0/18
VIDAFNFSNGEKWNNIA	QDSTRLQ	QSYQRLPLA	2.11 n.d. n.d. n.d. 3.36 n.d.	2/18 (2.88)

Excerpt, the first 2 entries:

CDR-L1,CDR-L2,CDR-L3,log10 Kd (nM) by replicate,control signals
SFPSEMDQQQFQVNSIA,GEQHTAR,QQYGRLPLS,2.15 3.10 1.79 2.05 1.97 2.15,1/18 (2.83)
EIEILGEEVTQHYSNVA,EQHVTDM,QQYFRLPLS,n.d. n.d. n.d. n.d. 0.85 n.d.,0/18

The range of this assay differs from that of the first round, and the authors advise against merging the two.
In the paper, a design with two or fewer of six values counts as a poor binder.
The parent sequence was in this pool as ten entries: three were never detected, three once, and four in most replicates, with averages from 0.34 to 2.37.